{"sequences": {"note": "By UniProt entry, the sequences of proteins in these tests, tags left out.", "UniProt P35363, whole entry": "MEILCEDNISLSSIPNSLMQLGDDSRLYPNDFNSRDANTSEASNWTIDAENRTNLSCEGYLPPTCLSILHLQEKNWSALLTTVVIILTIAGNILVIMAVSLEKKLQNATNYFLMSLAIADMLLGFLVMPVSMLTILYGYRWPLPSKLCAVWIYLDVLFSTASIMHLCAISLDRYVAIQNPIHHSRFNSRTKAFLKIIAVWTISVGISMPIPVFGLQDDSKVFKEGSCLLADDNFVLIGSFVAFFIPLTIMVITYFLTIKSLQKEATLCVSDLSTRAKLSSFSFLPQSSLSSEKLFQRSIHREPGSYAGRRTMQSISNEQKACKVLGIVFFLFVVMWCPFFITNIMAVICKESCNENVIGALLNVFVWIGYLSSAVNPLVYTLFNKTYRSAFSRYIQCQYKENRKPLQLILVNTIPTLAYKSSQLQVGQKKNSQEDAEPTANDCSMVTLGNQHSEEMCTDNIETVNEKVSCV"}, "source": "paper PMC9191647", "about": "(2019)", "target": "mouse 5-HT2A (m5-HT2A) (Mus musculus, UniProt P35363)", "conditions": "percent 5-HT maximum response", "data": [{"smiles": "NCCc1c[nH]c2ccc(O)cc12", "note": "[5-HT, serotonin]", "values": [{"measurement": "Emax % 5-HT", "result": 100, "unit": "% 5-HT"}]}]}
